Data as given in publication PMC9077246 (2018).

Chains of the proteins cited; added tags and fusions are not shown.
UniProt P27338, whole entry, species assumed: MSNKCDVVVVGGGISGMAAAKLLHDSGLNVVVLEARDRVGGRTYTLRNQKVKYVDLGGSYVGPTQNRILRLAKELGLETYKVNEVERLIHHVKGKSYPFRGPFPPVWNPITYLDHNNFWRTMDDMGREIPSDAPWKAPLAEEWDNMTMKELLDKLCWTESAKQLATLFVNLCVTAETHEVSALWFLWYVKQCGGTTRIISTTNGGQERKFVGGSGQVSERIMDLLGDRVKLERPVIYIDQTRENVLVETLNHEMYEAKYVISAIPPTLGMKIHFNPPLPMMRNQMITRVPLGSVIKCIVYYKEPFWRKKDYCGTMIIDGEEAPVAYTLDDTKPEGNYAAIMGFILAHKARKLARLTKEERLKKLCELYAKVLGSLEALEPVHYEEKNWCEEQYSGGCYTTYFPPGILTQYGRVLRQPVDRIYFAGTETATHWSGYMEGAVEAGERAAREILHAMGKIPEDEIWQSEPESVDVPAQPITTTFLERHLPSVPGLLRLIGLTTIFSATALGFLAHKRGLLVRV
UniProt P21397, whole entry, species assumed: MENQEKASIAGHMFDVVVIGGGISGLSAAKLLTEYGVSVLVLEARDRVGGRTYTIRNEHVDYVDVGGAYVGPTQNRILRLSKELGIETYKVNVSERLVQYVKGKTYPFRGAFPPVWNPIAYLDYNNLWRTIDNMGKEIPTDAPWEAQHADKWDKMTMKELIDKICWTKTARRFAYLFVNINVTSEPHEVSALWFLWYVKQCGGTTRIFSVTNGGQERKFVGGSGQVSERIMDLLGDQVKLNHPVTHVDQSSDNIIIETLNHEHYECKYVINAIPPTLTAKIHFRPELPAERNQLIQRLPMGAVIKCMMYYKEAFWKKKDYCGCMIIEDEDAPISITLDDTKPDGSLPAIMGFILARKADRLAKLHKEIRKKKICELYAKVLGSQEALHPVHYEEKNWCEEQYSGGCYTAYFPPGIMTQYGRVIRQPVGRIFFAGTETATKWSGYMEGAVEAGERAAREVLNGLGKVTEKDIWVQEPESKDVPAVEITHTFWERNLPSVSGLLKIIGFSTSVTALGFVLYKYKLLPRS

What was measured:
MAO-B = MAO-B (Homo sapiens, UniProt P27338); experiment: biochemical; conditions: IC50, Table 1, mean ± SEM, eight-point experiments, three independent experiments
MAO-A = MAO-A (Homo sapiens, UniProt P21397); experiment: biochemical; conditions: IC50, Table 1, mean ± SEM, eight-point experiments, three independent experiments

SMILES	IC50 (MAO-B)	IC50 (MAO-A)
NC1CCC(N[C@@H]2C[C@H]2c2ccccc2)CC1 (stereo partly drawn) [Compound 6, N1-[(1R, 2S)-2-phenylcyclopropyl]cyclohexane-1,4-diamine dihydrochloride, reference compound]	194 ± 114 µM	
N[C@@H]1CC12CCc1ccccc12 (stereo partly drawn) [Compound 8a, (2R)-2′,3′-Dihydrospiro[cyclopropane-1,1′-inden]-2-amine hydrochloride]		> 100 µM
N[C@H]1CC12CCc1ccccc12 (stereo partly drawn) [Compound 8b, (2S)-2′,3′-Dihydrospiro[cyclopropane-1,1′-inden]-2-amine hydrochloride]		> 100 µM

Counter-ions that a name gives are not always drawn.
